Literature values, collected in patent US20050202505A1, “Method to identify modulators for human 3alpha-hydroxysteroid dehydrogenase” (priority 2001, published 2005).

Biological target: GABAA receptor
Conditions: allosteric effector of the GABAA receptor; cited from earlier work

## CC(=O)[C@H]1CC[C@H]2[C@@H]3CC[C@H]4C[C@H](O)CC[C@]4(C)[C@H]3CC[C@]12C [allopregnanolone, 3α-hydroxy-5a-pregnan-20-one]
  Kd: 1 nM
